In US10730870B2, “Compounds and methods for the enhanced degradation of targeted proteins” (Arvinas, Inc., priority 2015, dated 2020):

Molecular target: VHL (Homo sapiens (Human), UniProt P40337)
Assay: VHL fluorescence polarization (FP) competition assay
Format: binding

IC50 (0.25% in DMSO): 5690 nM
IC50 (1% in DMSO): 392 nM
IC50 (10% in DMSO): 1490 nM
SMILES: Cc1ncsc1-c1ccc(CNC(=O)[C@@H]2C[C@@H](O)CN2C(=O)[C@@H](NC(=O)Cc2ccccc2)C(C)(C)C)cc1 [Example 21, (2S,4R)-1-((S)-3,3-dimethyl-2-(2-phenylacetamido)butanoyl)-4-hydroxy-N-(4-(4-methylthiazol-5-yl)benzyl)pyrrolidine-2-carboxamide]
